Protein sequences, listed by entry. Tags and fused reporters are not part of them.
UniProt P61073, whole entry: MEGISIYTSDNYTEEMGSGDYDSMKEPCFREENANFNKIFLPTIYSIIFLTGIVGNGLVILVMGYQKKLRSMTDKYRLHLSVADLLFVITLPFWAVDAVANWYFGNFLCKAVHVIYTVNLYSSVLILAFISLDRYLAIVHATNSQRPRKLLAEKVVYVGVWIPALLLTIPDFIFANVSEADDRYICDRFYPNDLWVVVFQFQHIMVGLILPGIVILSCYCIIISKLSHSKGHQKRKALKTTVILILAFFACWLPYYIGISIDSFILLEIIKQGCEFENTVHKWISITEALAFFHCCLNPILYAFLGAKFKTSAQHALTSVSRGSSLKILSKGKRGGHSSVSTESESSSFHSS

According to US12616761B2, “CXCR4-targeting compounds” (PROVINCIAL HEALTH SERVICES AUTHORITY, priority 2020, dated 2026):

Molecular target: T1, CXCR4 (Homo sapiens, UniProt P61073)
T1 construct: expressed in transfected cells; host or cells: CHO:CXCR4 cells (gift from Drs. David McDermott and Xiaoyuan Chen, NIH)
Experiment: Competitive binding assay: [125I]SDF-1α displacement on CHO:CXCR4 cells
Conditions: read-out: IC50 (nM), Binding Affinity to CXCR4; [125I]SDF-1α competition on CHO:CXCR4 cells; given as ranges
Method: The Z138 mantle cell lymphoma cell line was given by Dr. Christian Steidl (BC Cancer) as a gift. The CHO:CXCR4 cell line was given by Drs. David McDermott and Xiaoyuan Chen (National Institutes of Health) as a gift. The cell line was cultured in a 5% CO2 atmosphere at 37° C. in a humidified incubator. The Z138 cells were incubated with IMDM medium (Life Technologies Corporations) and the CHO:CXCR4 cells were incubated with F12K medium (Life Technologies Corporations), both of which were supplemented with 10% fetal bovine serum (Sigma-Aldrich), 100 I.U./mL penicillin, and 100 μg/mL streptomycin (Penicillin-Streptomycin Solution).
CHO:CXCR4 cells were seeded at a density of 1×10^5 cells/well in 24-well poly-D-lysine coated plates (Corning BioCoat) and incubated with [^1251]SDF-1α (0.01 nM, PerkinElmer) and competing nonradioactive ligands ([…]). The cells, radioligand, and competing peptides were incubated for 1 h at 27° C. with moderate shaking. Following the incubation period, the supernatant was aspirated, followed by three washes with 1 mL of ice-cold PBS. Cells were harvested with 200 μL of trypsin and counted on a y counter. Data were plotted in GraphPad Prism 7 to determine IC50 values (GraphPad Software, Inc., La Jolla, CA). The values are reported as mean±standard deviation.

| Substance | IC50 [nM] |
| --- | --- |
| cyclo[Phe-Tyr-Lys(iPr)-DArg-(4-NH2)Phe-D-Ala-D-Glu]-Lys(iPr) | 10 to 50 |
| cyclo[Phe-Tyr-Lys(iPr)-D-Arg-2Nal-D-His-D-Glu]-Lys(iPr) | 1 to 10 |
| cyclo[Phe-Tyr-Lys(iPr)-D-Arg-2Nal-D-Ala-D-Glu]-Lys(iPr) | 1 to 10 |
| cyclo[Phe-hTyr-Lys(iPr)-D-Arg-2-Nal-Gly-D-Glu]-Lys(iPr) | 1 to 10 |
| cyclo[Phe-(4-NH2)Phe-Lys(iPr)-D-Arg-2-Nal-D-Ala-D-Glu]-Lys(iPr) | 10 to 50 |
| cyclo[Phe-Tyr-Lys(iPr)-D-Arg-2Nal-D-Ser-D-Glu]-Lys(iPr) | 1 to 10 |
| cyclo[Phe-(3-1)Tyr-Lys(iPr)-D-Arg-2-Nal-Gly-D-Glu]-Lys(iPr) | 10 to 50 |
| cyclo[Phe-(4-NO2)Phe-Lys(iPr)-D-Arg-2-Nal-Gly-D-Glu]-Lys(iPr) | 10 to 50 |
| cyclo[Phe-Tyr-Lys(iPr)-D-Arg-2Nal-D-Glu-D-Glu]-Lys(iPr) | 10 to 50 |
| cyclo[Phe-(4-NH2)Phe-Lys(iPr)-D-Arg-2-Nal-Gly-D-Glu]-Lys(iPr) | 1 to 10 |
| cyclo[Phe-Tyr-Lys(iPr)-D-Arg-2Nal-D-Asn-D-Glu]-Lys(iPr) | 1 to 10 |
| cyclo[Phe-Tyr-Arg(Me)-D-Arg-2Nal-D-Ala-D-Glu]-Lys(iPr) | 1 to 10 |
| cyclo[Phe-Tyr-Lys(iPr)-D-Arg-2Nal-D-Gln-D-Gu]-Lys(iPr) | 1 to 10 |
| cyclo[Phe-Tyr-Lys(iPr)-D-Arg-2Nal-His-D-Glu]-Lys(iPr) | 10 to 50 |
| cyclo[Phe-Tyr-Lys(iPr)-D-Arg-2Nal-D-Dab-D-Glu]-Lys(iPr) | 1 to 10 |
